These results are taken from paper PMC8457121, “From Kinase Inhibitors to Multitarget Ligands as Powerful Drug Leads for Alzheimer's Disease using Protein‐Templated Synthesis” (Angewandte Chemie (International Ed. in English), 2021).

Protein sequences, listed by entry. Tags and fused reporters are not part of them. Residues count along the entry.
UniProt Q5S007, whole entry: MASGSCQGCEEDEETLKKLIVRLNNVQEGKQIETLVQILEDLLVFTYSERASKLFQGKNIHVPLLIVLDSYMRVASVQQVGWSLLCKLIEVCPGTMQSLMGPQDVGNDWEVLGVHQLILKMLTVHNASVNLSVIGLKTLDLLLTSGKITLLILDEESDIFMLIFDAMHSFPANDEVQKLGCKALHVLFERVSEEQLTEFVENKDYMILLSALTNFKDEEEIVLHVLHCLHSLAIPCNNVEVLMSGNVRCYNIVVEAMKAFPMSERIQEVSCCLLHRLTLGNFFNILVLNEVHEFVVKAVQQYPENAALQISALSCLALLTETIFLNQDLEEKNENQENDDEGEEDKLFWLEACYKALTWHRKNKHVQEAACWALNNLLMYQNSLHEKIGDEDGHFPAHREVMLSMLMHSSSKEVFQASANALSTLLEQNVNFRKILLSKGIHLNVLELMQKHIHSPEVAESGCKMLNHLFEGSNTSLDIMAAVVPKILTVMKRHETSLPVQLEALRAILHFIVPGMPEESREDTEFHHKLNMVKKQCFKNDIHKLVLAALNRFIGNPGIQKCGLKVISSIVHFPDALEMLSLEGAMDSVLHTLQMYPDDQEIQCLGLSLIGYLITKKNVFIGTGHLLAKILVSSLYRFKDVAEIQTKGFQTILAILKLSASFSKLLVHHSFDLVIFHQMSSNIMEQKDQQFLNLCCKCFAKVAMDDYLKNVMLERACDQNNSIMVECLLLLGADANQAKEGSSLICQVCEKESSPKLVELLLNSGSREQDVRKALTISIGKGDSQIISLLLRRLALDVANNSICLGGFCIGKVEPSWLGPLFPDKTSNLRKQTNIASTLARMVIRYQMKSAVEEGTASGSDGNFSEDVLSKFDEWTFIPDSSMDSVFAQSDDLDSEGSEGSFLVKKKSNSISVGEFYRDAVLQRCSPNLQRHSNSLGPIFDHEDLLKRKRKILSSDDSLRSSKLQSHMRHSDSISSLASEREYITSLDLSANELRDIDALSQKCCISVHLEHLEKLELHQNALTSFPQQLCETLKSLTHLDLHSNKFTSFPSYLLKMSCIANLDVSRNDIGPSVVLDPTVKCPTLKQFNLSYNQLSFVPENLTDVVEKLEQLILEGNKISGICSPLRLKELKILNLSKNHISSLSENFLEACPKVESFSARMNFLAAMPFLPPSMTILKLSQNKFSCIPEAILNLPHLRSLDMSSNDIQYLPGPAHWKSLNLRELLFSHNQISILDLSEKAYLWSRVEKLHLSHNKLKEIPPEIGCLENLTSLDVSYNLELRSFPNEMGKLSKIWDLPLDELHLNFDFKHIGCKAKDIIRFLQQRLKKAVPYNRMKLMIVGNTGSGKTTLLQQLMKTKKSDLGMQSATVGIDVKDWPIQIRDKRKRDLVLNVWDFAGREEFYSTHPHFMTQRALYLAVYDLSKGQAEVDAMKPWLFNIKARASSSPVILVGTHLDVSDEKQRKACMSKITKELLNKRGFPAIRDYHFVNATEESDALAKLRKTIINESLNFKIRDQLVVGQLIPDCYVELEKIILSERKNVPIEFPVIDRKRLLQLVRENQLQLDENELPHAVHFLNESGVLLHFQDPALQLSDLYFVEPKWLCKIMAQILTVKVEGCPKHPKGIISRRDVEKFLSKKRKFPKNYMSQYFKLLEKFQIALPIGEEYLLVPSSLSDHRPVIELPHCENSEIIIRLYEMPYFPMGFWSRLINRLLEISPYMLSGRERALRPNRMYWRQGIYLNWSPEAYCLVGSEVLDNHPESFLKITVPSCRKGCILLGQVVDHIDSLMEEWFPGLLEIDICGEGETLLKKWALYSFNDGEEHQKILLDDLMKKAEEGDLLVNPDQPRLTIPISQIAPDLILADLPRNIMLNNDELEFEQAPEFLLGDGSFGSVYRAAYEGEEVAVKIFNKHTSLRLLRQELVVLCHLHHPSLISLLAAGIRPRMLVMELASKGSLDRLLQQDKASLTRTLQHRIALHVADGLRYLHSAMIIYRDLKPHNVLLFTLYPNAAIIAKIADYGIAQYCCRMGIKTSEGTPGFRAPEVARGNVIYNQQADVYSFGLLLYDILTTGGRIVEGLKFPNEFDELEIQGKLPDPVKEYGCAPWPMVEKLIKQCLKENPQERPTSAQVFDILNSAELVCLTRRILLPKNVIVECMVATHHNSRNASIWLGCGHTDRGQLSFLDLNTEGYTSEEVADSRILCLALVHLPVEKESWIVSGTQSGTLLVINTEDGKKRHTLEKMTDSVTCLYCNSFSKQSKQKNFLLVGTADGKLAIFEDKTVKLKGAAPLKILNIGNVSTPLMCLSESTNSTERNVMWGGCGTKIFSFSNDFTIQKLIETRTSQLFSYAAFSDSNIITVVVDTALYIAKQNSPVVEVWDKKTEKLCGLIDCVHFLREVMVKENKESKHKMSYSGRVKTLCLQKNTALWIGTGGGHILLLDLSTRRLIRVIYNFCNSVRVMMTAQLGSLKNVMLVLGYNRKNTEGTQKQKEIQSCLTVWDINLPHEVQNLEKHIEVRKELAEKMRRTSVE
UniProt P56817, 46-501 limits assumed: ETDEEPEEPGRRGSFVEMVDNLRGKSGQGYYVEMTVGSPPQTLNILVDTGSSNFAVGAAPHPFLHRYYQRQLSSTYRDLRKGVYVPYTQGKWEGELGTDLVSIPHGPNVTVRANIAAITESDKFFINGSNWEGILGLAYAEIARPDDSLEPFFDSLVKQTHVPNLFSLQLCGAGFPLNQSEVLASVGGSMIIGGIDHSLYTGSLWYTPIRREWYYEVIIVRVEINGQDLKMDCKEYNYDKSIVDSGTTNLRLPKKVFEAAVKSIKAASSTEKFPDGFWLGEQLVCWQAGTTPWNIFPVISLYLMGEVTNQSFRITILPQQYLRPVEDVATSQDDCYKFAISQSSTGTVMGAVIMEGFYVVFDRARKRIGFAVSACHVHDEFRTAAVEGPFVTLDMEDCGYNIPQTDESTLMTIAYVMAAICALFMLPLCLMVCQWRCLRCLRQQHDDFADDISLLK

The IC50 is the concentration that inhibits the measured activity by half.

The structures appear in SMILES notation. Like-named read-outs stand apart in the source and are kept apart here.

In assay [1] the target is T1, LRRK2 (Homo sapiens, UniProt Q5S007). The experiment in a line: LRRK2 inhibition enzymatic assay (Adapta, ThermoFisher). To be noted: read-out: LRRK2 IC50. It is filed as biochemical.
In assay [2] the target is T1, LRRK2. To be noted: read-out: LRRK2 inhibitor IC50; MBC chemical library lead, Figure 5 ref 31, 34, 35, 36; cited from earlier work.
The target of assay [3] is BACE1 (Homo sapiens, UniProt P56817). The experiment in a line: BACE1 enzymatic assay (FRET). It is filed as biochemical. To be noted: read-out: BACE1 IC50.

`O=C(Nc1nc2ccccc2s1)c1ccccc1`: the values for the IC50 in assay [1], in assay [2] and in assay [3] were 1050 nM, 1050 nM and > 20000 nM, respectively.
